# From paper PMC3456874, “Fragment Screening at Adenosine-A3 Receptors in Living Cells Using a Fluorescence-Based Binding Assay” (Chemistry & Biology, 2012)
# Protein sequences, listed by entry. Tags and fused reporters are not part of them.
# UniProt P30542, whole entry: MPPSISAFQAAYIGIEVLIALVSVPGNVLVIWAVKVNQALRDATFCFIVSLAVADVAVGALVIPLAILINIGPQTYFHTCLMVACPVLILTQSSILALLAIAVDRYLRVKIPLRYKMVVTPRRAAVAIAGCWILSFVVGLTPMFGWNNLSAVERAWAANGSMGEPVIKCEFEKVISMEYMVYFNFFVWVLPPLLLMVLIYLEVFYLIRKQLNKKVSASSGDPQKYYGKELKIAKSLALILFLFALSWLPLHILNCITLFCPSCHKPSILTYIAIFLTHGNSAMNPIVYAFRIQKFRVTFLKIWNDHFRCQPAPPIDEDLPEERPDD
# Target: human A1AR (Homo sapiens, UniProt P30542)
compound,measurement,value
O=C(Cc1ccccc1)Nc1nc2ccc(Cl)cc2c2nc(-c3ccco3)nn12 [MRS1220],Ki,72.4 nM
